Reference: US20120058099A1, “USE OF HYPOXANTHINE FOR PROMOTION OF NEURONAL OUTGROWTH” (CHILDREN'S MEDICAL CENTER CORPORATION, priority 2009, published 2012)

Tested on: embryonic cortical neurons
Test: Embryonic cortical neuron axonal outgrowth with or without BCX-34 (FIG. 2)
Assay type: cell-based, rat
Procedure: These experiments were done on embryonic cortical neurons. The forebrains of […] rat pups were dissected and plated in media containing serum. After 3 hours the medium was exchanged for Medium E (Irwin et al. 2006) (Proc Nati Acad Sci U S A. 2006 Nov 28;103(48):18320-5). The cells were treated the following day with inosine or hypoxanthine, in the presence and absence of the indicated amount of the inhibitor 6-thioguanine (6-TG), and allowed to grow for 3 days. The 6-TG was added 1 hour before the hypoxanthine or inosine. Following the three days of growth, the cells were fixed and stained with Taul antibody and a fluorescent secondary antibody. Axons were then counted. […] FIG. 1 presents the data obtained.
In a similar experiment, embryonic cortical neurons were given brain derived neurotrophic factor (BDNF) (2 ng/ml), inosine, or hypoxanthine (100 μM). […] The cells were then scored for neuron axonal outgrowth. The data collected is represented in FIG. 2.

Nc1nc2c(Cc3cccnc3)c[nH]c2c(=O)[nH]1 [BCX-34]
effect of BCX-34 on growth of cells exposed to hypoxanthine (BCX-34 50 μM added 1 hour before hypoxanthine 100 μM): did not negatively impact the growth of cells exposed to hypoxanthine | effect of BCX-34 on axon outgrowth of cells exposed to inosine (BCX-34 50 μM added 1 hour before inosine): blocked axon outgrowth of cells exposed to inosine
